Assay results as given in patent US7745147 (VIRANATIVE, dated 2010).

Target: T1, human interferon alpha 8 (human, UniProt P32881 24-189)
T1 construct: One entry serves both the natural leukocyte protein and the bought recombinant protein; also called α8; IFN-α8
Assay: immunoaffinity column loaded with crude leukocyte interferon alpha; RP-HPLC of eluate

binding result: binds
B1: Monoclonal antibody 3-A3-2 (antibody, mouse IgG1, V domains shown)
VH: QVQLQESGTVLARPGASVKMSCKASGYSFTTYWMHWVKQRPGQGLEWIGVIYPGNGDTTYNQKFKDKAKLTAVTSANTAYMELSSLTNEDSAVYFCTRNYKYDYYTMDYWGQGTTVTVSS
VL: DIVLTQSPASLAVSLGQRATISCRASKSVSTSGHSYMHWYQQKPGQTPKLLIYLASNLESGVPARFSGSGSGTDFTLNIHPVEEEDAATYYCQHSGELPFTFGSGTKLEIK
notes: Murine IgG1/kappa from hybridoma 3-A3-2 (ECACC 05030201); also called monoclonal 3-A3-2; 3A32 Ab
